Results taken from patent US20260091008A1, “DOUBLE TARGETED CONSTRUCTS TO AFFECT TUMOR KILL” (Cornell University, priority 2016, published 2026).

Amino acid sequences for entries named in this document (tags omitted). Residues count along the entry.
UniProt P02768, 25-609 limits assumed: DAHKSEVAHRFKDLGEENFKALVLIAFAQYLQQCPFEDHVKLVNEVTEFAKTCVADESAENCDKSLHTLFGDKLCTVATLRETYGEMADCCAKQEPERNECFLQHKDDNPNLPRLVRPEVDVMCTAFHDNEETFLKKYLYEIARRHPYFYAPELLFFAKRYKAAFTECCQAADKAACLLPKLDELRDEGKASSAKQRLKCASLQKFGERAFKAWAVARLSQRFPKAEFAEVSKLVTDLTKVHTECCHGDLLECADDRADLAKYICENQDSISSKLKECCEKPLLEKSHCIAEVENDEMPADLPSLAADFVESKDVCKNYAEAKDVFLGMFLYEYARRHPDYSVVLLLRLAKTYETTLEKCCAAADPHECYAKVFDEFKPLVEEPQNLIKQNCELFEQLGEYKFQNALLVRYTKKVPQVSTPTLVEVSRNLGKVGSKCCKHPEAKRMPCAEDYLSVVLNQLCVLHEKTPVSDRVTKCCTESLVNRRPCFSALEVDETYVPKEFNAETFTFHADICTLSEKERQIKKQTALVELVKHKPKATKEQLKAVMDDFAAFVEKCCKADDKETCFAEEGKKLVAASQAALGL

Experiments:
HSA = HSA (Homo sapiens, UniProt P02768); assay: HSA affinity determination on immobilized-HSA microcolumns; details: read-out: Kd for HSA; HSA microcolumn, phosphate buffer pH 7.4, room temperature
LNCaP cell xenografts = assay: Tissue distribution of 131I-labeled compounds in mice bearing LNCaP xenografts; assay type: in vivo; details: for Blood t1/2 for the distribution phase / Blood t1/2 for the elimination phase: bi-exponential dual compartment fit of blood data

O=C(O)CC[C@H](NC(=O)N[C@@H](CCCNC(=O)CCc1ccc([131I])cc1)C(=O)O)C(=O)O
Kd (HSA): 22.9 µM
Tumor-to-kidney (T/K) ratio (LNCaP cell xenografts; 12 h post injection): > 1
Blood t1/2 for the distribution phase (LNCaP cell xenografts): 2.1 h
Blood t1/2 for the elimination phase (LNCaP cell xenografts): 17.3 h
Blood activity (in words) (LNCaP cell xenografts; blood, 12 h post injection): negligible activity
Kidney uptake (LNCaP cell xenografts; 1 h post injection): 52.18±5.35 % ID/g
Kidney uptake (LNCaP cell xenografts; 24 h post injection): 2.27±1.41 % ID/g
Liver uptake (LNCaP cell xenografts; liver, 1 h post injection): 12.46±1.63 % ID/g
Small intestine uptake (LNCaP cell xenografts; small intestine, 1 h post injection): 13.09±2.98 % ID/g
Tumor uptake (LNCaP cell xenografts; 1 h post injection): 7.20±0.10 % ID/g
Tumor uptake (LNCaP cell xenografts; 6 h post injection): 3.35±1.70 % ID/g

O=C(O)CC[C@H](NC(=O)N[C@@H](CCCNC(=O)CCCc1ccc([131I])cc1)C(=O)O)C(=O)O
Kd (HSA): 2.1 µM
Blood t1/2 for the distribution phase (LNCaP cell xenografts): 3.85 h
Blood t1/2 for the elimination phase (LNCaP cell xenografts): 3,300 h
Blood activity (LNCaP cell xenografts; blood, 1 h post injection): 16.20±4.68 % ID/g
Blood activity (LNCaP cell xenografts; blood, 48 h post injection): 12.71±1.55 % ID/g
Kidney uptake (LNCaP cell xenografts; 1 h post injection): 16.21±0.97 % ID/g
Kidney uptake (LNCaP cell xenografts; 24 h post injection): 22.26±2.48 % ID/g
Lungs uptake (LNCaP cell xenografts; lungs, 1 h post injection): 6.12±0.95 % ID/g
Tumor uptake (LNCaP cell xenografts; time not stated, stable over the course of the 48 h): 4.81±1.27 % ID/g
